This is an account of results in PubChem BioAssay AID602428 (Sanford-Burnham Center for Chemical Genomics, 2012).

This is a selection; strong and weak results do not stand in their true shares. The source made the active and inactive calls.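 How the source made its calls: active means mean inhibition at 5 µM reaching about 45% (limit read from the data); inactive means the rest.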

This test in a line: blockers of Gli reporter signaling – single concentration, luciferase luminescence, Sufu-KO-LIGHT cells, confirmation (AID 602428).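 Further: plate controls were DMSO-treated cells for no effect and wells lacking cells for full effect.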 The following applies: at 5 µM, active compounds read high.
For orientation: inhibition means the relative decrease from the control value, in per cent. For the compound `CC1=C2N=C(C=C3N=C(C(C)=C4[N-][C@@](C)([C@@H]5N=C1[C@](C)(CCC(=O)NC[C@@H](C)OP(=O)([O-])O[C@H]1[C@@H](O)[C@@H](n6cnc7cc(C)c(C)cc76)O[C@@H]1CO)[C@H]5CC(N)=O)[C@@](C)(CC(N)=O)[C@@H]4CCC(N)=O)[C@@](C)(CC(N)=O)[C@@H]3CCC(N)=O)C(C)(C)[C@@H]2CCC(N)=O.[C-]#N.[Co+3]`, the inhibition is inactive: 42.6%.
